{
  "source": "IntAct's records for PubMed 19368893",
  "parents": {"B1": {"name": "ADP-ribosylation factor-like protein 2 (Homo sapiens), P36404 (parent)", "chain": "MGLLTILKKMKQKERELRLLMLGLDNAGKTTILKKFNGEDIDTISPTLGFNIKTLEHRGFKLNIWDVGGQKSLRSYWRNYFESTDGLIWVVDSADRQRMQDCQRELQSLLVEERLAGATLLIFANKQDLPGALSSNAIREVLELDSIRSHHWCIQGCSAVTGENLLPGIDWLLDDISSRIFTAD", "partner": "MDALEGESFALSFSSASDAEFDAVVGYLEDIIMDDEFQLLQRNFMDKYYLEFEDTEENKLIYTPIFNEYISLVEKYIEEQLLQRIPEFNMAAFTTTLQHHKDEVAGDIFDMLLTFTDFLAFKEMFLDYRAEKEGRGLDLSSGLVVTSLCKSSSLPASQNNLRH"}},
  "data": [
    {"variants_of": "B1", "conditions": "with ar2bp_human ARL2BP", "values": [
      {"variant": "MGLLTRLKKMKQKERELRLLMLGLDNAGKTTILKKFNGEDIDTISPTLGFNIKTLEHRGFKLNIWDVGGQKSLRSYWRNYFESTDGLIWVVDSADRQRMQDCQRELQSLLVEERLAGATLLIFANKQDLPGALSSNAIREVLELDSIRSHHWCIQGCSAVTGENLLPGIDWLLDDISSRIFTAD", "note": "[I6R]", "effect of a mutation on the interaction": "disrupting interaction"},
      {"variant": "MGLLTIDKKMKQKERELRLLMLGLDNAGKTTILKKFNGEDIDTISPTLGFNIKTLEHRGFKLNIWDVGGQKSLRSYWRNYFESTDGLIWVVDSADRQRMQDCQRELQSLLVEERLAGATLLIFANKQDLPGALSSNAIREVLELDSIRSHHWCIQGCSAVTGENLLPGIDWLLDDISSRIFTAD", "note": "[L7D]", "effect of a mutation on the interaction": "disrupting interaction"},
      {"variant": "MGLDTILKKMKQKERELRLLMLGLDNAGKTTILKKFNGEDIDTISPTLGFNIKTLEHRGFKLNIWDVGGQKSLRSYWRNYFESTDGLIWVVDSADRQRMQDCQRELQSLLVEERLAGATLLIFANKQDLPGALSSNAIREVLELDSIRSHHWCIQGCSAVTGENLLPGIDWLLDDISSRIFTAD", "note": "[L4D]", "effect of a mutation on the interaction": "disrupting interaction"},
      {"variant": "MGDLTILKKMKQKERELRLLMLGLDNAGKTTILKKFNGEDIDTISPTLGFNIKTLEHRGFKLNIWDVGGQKSLRSYWRNYFESTDGLIWVVDSADRQRMQDCQRELQSLLVEERLAGATLLIFANKQDLPGALSSNAIREVLELDSIRSHHWCIQGCSAVTGENLLPGIDWLLDDISSRIFTAD", "note": "[L3D]", "effect of a mutation on the interaction": "disrupting interaction strength"},
      {"variant": "MGALTILKKMKQKERELRLLMLGLDNAGKTTILKKFNGEDIDTISPTLGFNIKTLEHRGFKLNIWDVGGQKSLRSYWRNYFESTDGLIWVVDSADRQRMQDCQRELQSLLVEERLAGATLLIFANKQDLPGALSSNAIREVLELDSIRSHHWCIQGCSAVTGENLLPGIDWLLDDISSRIFTAD", "note": "[L3A]", "effect of a mutation on the interaction": "disrupting interaction strength"},
      {"variant": "MGLLTILKKMKQKERELRLLMLGLDNAGKTTILKKFNGEDIDTISPTLGFNIKTLEHRGFKLNIWDVGGQKSLRSYWRNAFESTDGLIWVVDSADRQRMQDCQRELQSLLVEERLAGATLLIFANKQDLPGALSSNAIREVLELDSIRSHHWCIQGCSAVTGENLLPGIDWLLDDISSRIFTAD", "note": "[Y80A]", "effect of a mutation on the interaction": "disrupting interaction"},
      {"variant": "MGLLTILKKMKQKERELRLLMLGLDNAGKTTILKKFNGEDIDTISPTLGANIKTLEHRGFKLNIWDVGGQKSLRSYWRNYFESTDGLIWVVDSADRQRMQDCQRELQSLLVEERLAGATLLIFANKQDLPGALSSNAIREVLELDSIRSHHWCIQGCSAVTGENLLPGIDWLLDDISSRIFTAD", "note": "[F50A]", "effect of a mutation on the interaction": "disrupting interaction"}
    ]}
  ]
}
